## Binding of CDR-mutated scFvs to a peptide of the spike HR2 region

Antigen: PDVDLGDISGINAS, a 14-residue peptide of the SARS-CoV-2 spike HR2 region.

The variants keep the heavy chain, the linker and the frameworks of Ab-95 (scFv order VH, a (GGGGS)3 linker, VL).
VH: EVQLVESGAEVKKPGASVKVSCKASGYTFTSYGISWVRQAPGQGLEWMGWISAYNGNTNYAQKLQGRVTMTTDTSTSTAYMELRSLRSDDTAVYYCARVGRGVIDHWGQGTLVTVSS
VL: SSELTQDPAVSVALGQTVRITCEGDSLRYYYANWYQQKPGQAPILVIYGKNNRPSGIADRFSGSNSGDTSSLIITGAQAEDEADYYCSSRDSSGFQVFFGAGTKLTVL

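The parent was found by panning a naive human phage display library on the peptide. Variants in AAYL52 differ from the parent at up to three CDR positions; double and triple changes were sampled at random. Affinity was read by AlphaSeq, a pooled yeast mating assay with surface-displayed partners. After mating in shaken culture at 30 °C for 16 h, diploids were selected and their barcode pairs sequenced. The ratio of observed to expected reads was calibrated, replicate by replicate, on BCL2-family standards whose Kd was known from biolayer interferometry. Mating was done three times.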

Positions count from residue 1 of the parent VL; R90V puts V in place of R. The read-out is the apparent dissociation constant on a log10 scale (nM): the lower, the stronger. The mean shown is taken over the replicates in which the pair was detected. "nd" means that the variant was in the library but no mating with the target was seen in that replicate; the authors take this as a sign of poor binding, and no number exists. As a blank, each scFv also met three strains without target: over library AAYL52, 28% of these pairings were detected, typically at 3.91 and seldom below 2.90. In this assay the parent's reference entry averaged 2.31; its copy inside this library read 2.25.

The variant R90V S93F gave 4.37, 2.77, 2.96 (mean 3.37).
The variant D91F Q96W F98G gave 3.54, 3.24, 3.97 (mean 3.58).
The variant G24S K50D S89D gave 2.74, 3.20, 2.94 (mean 2.96).
The variant Y30A G94S F95V gave 2.02, 1.80, 1.49 (mean 1.77).
The variant Y30A S55D D91I gave 1.02, 1.01, 0.80 (mean 0.94).
The variant R28Y K50Q S93C gave 2.71, 3.55, 3.55 (mean 3.27).
The variant E23F K50R F98Y gave 2.73, 2.74, 2.37 (mean 2.62).
The variant Y30K S55Y R90W gave 1.63, 1.53, 0.61 (mean 1.26).
The variant Y30K A32M G49C gave 3.02, 3.01, 3.46 (mean 3.16).
The variant L27I R53F Q96S gave 4.03, nd, nd.
The variant D25L S55F R90Q gave 2.35, 4.19, 2.86 (mean 3.13).
The variant R28H N51E S92Y gave 3.87, 2.66, 3.07 (mean 3.20).
The variant K50G R53W D91I gave 5.16, nd, 4.16 (mean 4.66).
The variant L27I N33M gave nd, nd, 4.46.
The variant E23L L27S K50L gave nd, nd, 4.16.
The variant G24Y L27F gave 3.94, 4.22, 3.28 (mean 3.81).
The variant G49K R53C R90M gave nd, 3.81, 3.76 (mean 3.79).
The variant N33E N51E S93G gave 3.35, 3.77, nd (mean 3.56).
The variant L27F D91S S92G gave 3.80, 3.02, nd (mean 3.41).
The variant Y30T G49F S89W gave nd, nd, nd.
The variant G24F S26G F95W gave 2.93, 3.47, 2.91 (mean 3.10).
The variant G24I S26Y gave 4.79, nd, 2.52 (mean 3.65).
The variant E23P Y31K K50R gave nd, nd, nd.
The variant G24Q D91G Q96V gave 3.88, 3.65, nd (mean 3.77).
The variant D25H A32P R90Q gave 3.53, 2.44, 3.44 (mean 3.14).
The variant Y31I S93K F98A gave nd, nd, nd.
The variant G24A Y31P S93C gave nd, 3.79, 3.51 (mean 3.65).
The variant K50Q N52M gave 1.98, 1.92, 1.53 (mean 1.81).
The variant G24A N51Q gave 3.59, nd, nd.
The variant Y29P R90G F98V gave 4.50, nd, nd.
The variant L27M Y30I N51I gave 4.06, nd, 2.75 (mean 3.40).
The variant E23C N52T S55A gave nd, nd, 4.25.
The variant L27C S92Y F95Y gave 3.84, 3.70, nd (mean 3.77).
The variant S55T R90Y V97Q gave nd, nd, nd.
The variant N33D G94N F95D gave 4.42, nd, 4.19 (mean 4.31).
The variant A32H S89Y V97I gave 3.43, 2.72, 2.83 (mean 2.99).
The variant L27I G49N N51G gave 3.61, nd, nd.
The variant Y30D N33F S92D gave 4.31, nd, nd.
The variant R53Q S92L gave 4.04, nd, 3.13 (mean 3.59).
The variant Y30D K50T R53M gave nd, nd, nd.
The variant G24F S92Y gave 3.05, 3.26, 2.66 (mean 2.99).
The variant G49S N52G gave 4.00, 3.05, nd (mean 3.52).
The variant G24F A32W G94D gave nd, nd, nd.
The variant Y31K R90I gave 4.79, 2.33, nd (mean 3.56).

Reference: Engelhart et al. 2022, doi:10.1038/s41597-022-01779-4. File: FLAb, binding data.